Experimental data published in patent US20030161893A1, “PTPase inhibitors and methods of using the same” (priority 2001, published 2003).

Tested on: WM9 cells
Assay: Cell proliferation assay (MTT), WM9 melanoma cells
Assay type: cell-based, human
Conditions: day 6
Protocol: For cell proliferation assays, cells were grown in 10% FCS culture medium containing various amounts of IFNs and/or sodium stibogluconate in 96 well plates and cultured at 37° C. for 3 or 6 days as indicated. The numbers of viable cells in proliferation assays were determined by MTT assays as described in Phatak et al., J. Immunol. 167, 3391 (2001).
Median effect analysis (Chou et al., Adv. Enzyme Regul. 22, 27 (1984)), which provides the most general form of studying the interactions between drugs, was utilized to analyze the interaction between sodium stibogluconate and IFN-alpha or IFN-beta. Dose response curves were generated for each drug alone, and also the combinations. Median effect plots were generated for IFNs alone, sodium stibogluconate alone, and the combination. The combination index (CI) was determined and plotted vs. fraction affected (FA). Data were analyzed in both modes, mutually exclusive and mutually nonexclusive. The interaction between two mutually nonexclusive drugs is described by the Equation CI=D1/D×1+D2/D×2+D1D2/D×1D×2, where D×1 and D×2 are the doses of drug 1 and drug 2 that are required to inhibit growth×%. […] When CI<1, drugs are synergistic, when CI=1, drugs are additive, and when CI>1, drugs are antagonistic.

B1: IFN-beta: Recombinant human IFN-beta (protein, UniProt P01574 22-187, looked up)
Interferon beta: MSYNLLGFLQRSSNFQCQKLLWQLNGRLEYCLKDRMNFDIPEEIKQLQQFQKEDAALTIYEMLQNIFAIFRQDSSSTGWNETIVENLLANVYHQINHLKTVLEEKLEKEDFTRGKLMSSLHLKRYYGRILHYLKAKEYSHCAWTIVRVEILRNFYFINRLTGYLRN
growth of WM9 cells with IFN alone: more potently
